Laboratory results published in patent US20250221987A1, “PIPERAZINO RING-CONTAINING DERIVATIVE, PHARMACEUTICALLY ACCEPTABLE SALT THEREOF, PREPARATION METHOD THEREFOR, AND APPLICATION THEREOF” (ACERAND THERAPEUTICS (HONG KONG) LIMITED, priority 2022, published 2025).
pIC50: −log10 of the molar value.

Sequences of proteins named here, by UniProt entry; tags and fusion partners are left off.
UniProt P09874, whole entry: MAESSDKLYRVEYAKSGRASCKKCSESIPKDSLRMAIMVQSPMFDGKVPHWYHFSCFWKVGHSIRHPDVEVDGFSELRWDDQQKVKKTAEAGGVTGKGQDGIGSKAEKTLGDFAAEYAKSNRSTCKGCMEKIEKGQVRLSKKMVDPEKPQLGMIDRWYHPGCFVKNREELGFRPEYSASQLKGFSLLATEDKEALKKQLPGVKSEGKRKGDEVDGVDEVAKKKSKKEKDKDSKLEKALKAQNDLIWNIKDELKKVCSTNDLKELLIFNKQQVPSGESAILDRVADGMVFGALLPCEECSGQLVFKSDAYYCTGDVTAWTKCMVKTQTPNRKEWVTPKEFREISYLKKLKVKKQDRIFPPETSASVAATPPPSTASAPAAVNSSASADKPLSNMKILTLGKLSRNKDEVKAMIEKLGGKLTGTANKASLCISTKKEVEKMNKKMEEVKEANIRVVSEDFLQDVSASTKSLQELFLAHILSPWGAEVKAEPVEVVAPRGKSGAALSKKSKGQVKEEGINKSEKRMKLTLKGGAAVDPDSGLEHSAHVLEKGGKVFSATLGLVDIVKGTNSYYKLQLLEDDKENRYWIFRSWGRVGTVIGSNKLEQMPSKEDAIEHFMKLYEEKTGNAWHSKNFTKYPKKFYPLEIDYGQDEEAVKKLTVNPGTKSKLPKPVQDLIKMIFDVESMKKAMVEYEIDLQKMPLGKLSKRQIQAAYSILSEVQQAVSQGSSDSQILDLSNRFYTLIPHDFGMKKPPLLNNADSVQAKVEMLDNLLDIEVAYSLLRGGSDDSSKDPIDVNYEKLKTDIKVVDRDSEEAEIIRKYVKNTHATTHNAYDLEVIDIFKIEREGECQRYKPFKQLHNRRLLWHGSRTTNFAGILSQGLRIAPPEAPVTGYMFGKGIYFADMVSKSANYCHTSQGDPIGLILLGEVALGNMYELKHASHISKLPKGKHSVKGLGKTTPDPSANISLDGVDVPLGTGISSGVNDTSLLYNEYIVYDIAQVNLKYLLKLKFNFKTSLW

Columns and labels:
MDA-MB-436 cells = assay: Proliferation activity assay of MDA-MB-436 cells (CellTiter-Glo); conditions: read-out: MDA-MB-436 proliferation inhibition IC50; 4000 cells seeded, 6 days incubation
PARP1 = PARP1 (Homo sapiens (Human), UniProt P09874); assay: PARP1 enzymatic activity assay; format: biochemical; conditions: ratio IC50 (PARP2)/IC50 (PARP1)

Structure (SMILES)	pIC50 (MDA-MB-436 cells)	PARP1/PARP2 inhibition Selectivity multiple N (N = IC50 (PARP2)/IC50 (PARP1)) (PARP1)
CCc1nc2ccc(CN3CCN(c4ccc(C(=O)NC)nc4)C4CCC43)cc2[nH]c1=O (single isomer, unassigned)	8.22	–
CCc1c(F)c2ncc(CN3CCN(c4ccc(C(=O)NC)nc4)C4CC[C@H]43)cc2[nH]c1=O (stereo partly drawn)	8.40	284
CCc1nc2ccc(CN3CCN(c4ccc(C(=O)NC)nc4F)C4CC[C@H]43)cc2[nH]c1=O (stereo partly drawn)	7.82	–
CCc1nc2c(F)cc(CN3CCN(c4ccc(C(=O)NC)nc4)C4CC[C@H]43)cc2[nH]c1=O (stereo partly drawn)	8.05	> 416
